# Assay results published in US20130089499A1 (NATIONAL RESEARCH COUNCIL OF CANADA, published 2013).
# Protein sequences, listed by entry. Tags and fused reporters are not part of them. Residues count along the entry.
# UniProt P01137, 279-390 limits assumed: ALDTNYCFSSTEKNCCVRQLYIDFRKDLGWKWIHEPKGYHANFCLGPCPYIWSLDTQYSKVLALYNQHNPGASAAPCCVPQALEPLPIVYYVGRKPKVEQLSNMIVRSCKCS
# Molecular target: TGF-β1 (UniProt P01137)
# Experiment: cell-based or functional assay
substance,measurement,value
TβRII-Fc R&D (from UniProt P37173 23-166) (Fc fusion),"IC50, inhibition of TGF-β signaling in Mv1Lu luciferase reporter cells",0.1 nM
